From patent US20250134864A1, “METHODS OF WEIGHT LOSS AND PRESERVING SKELETAL MUSCLE MASS” (published 2025)

Assay: Phase 2a trial: glycemic control (glycated albumin, HbA1c) and inflammatory/metabolic markers
[1] = 150 mg, HbA1c 5.7%-9.0% subgroup
[2] = 300 mg, HbA1c 5.7%-9.0% Subgroup
[3] = 450 mg, HbA1c 5.7%-9.0% subgroup

## Cn1c(COc2ccc([N+](=O)[O-])cc2[N+](=O)[O-])cnc1[N+](=O)[O-]
150 mg, FAS population
  Percent Glycated Albumin, Change from Baseline to Day 61, Mean: −0.18%
  Percent Glycated Albumin, Change from Baseline to Day 61, Median: 0.1%
[1]
  Percent Glycated Albumin, Change from Baseline to Day 61, Mean: −0.78%
  Percent Glycated Albumin, Change from Baseline to Day 61, Median: 0.15%
300 mg, FAS population
  Percent Glycated Albumin, Change from Baseline to Day 61, Mean: −0.66%
  Percent Glycated Albumin, Change from Baseline to Day 61, Median: −0.55%
[2]
  Percent Glycated Albumin, Change from Baseline to Day 61, Mean: −0.36%
  Percent Glycated Albumin, Change from Baseline to Day 61, Median: −0.2%
450 mg, FAS population
  Percent Glycated Albumin, Change from Baseline to Day 61, Mean: −1.49%
  Percent Glycated Albumin, Change from Baseline to Day 61, Median: −1.25%
[3]
  Percent Glycated Albumin, Change from Baseline to Day 61, Mean: −1.73%
  Percent Glycated Albumin, Change from Baseline to Day 61, Median: −1.7%
61-day study
  Inflammatory and metabolic markers: Significant reductions
